Patent US9931347B2, “Pharmaceutical compound” (IOmet Pharma Ltd., priority 2013, dated 2018)

Protein sequences, listed by entry. Tags and fused reporters are not part of them.
UniProt P48775, whole entry: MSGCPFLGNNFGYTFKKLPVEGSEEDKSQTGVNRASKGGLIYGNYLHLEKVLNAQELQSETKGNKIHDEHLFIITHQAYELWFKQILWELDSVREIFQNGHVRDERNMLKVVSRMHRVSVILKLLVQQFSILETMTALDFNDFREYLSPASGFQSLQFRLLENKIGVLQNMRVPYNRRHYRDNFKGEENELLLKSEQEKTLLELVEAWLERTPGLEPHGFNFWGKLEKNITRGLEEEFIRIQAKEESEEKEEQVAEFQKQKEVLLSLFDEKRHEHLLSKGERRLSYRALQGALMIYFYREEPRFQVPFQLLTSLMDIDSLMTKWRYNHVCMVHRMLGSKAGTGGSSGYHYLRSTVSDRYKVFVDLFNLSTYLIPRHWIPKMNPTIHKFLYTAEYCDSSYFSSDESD
UniProt P14902, whole entry: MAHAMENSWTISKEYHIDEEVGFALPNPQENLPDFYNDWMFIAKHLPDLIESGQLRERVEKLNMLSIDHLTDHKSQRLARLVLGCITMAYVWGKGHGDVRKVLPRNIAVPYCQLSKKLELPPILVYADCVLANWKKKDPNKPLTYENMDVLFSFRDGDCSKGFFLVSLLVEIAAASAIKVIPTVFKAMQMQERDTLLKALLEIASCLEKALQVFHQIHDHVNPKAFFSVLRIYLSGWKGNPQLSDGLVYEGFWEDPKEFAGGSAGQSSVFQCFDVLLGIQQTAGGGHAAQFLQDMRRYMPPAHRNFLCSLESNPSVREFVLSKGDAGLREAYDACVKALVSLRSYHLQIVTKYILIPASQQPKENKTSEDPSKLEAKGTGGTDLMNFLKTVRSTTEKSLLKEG

Tests used:
[1] = molecular target: TDO (A172 human glioblastoma cells) (Homo sapiens, UniProt P48775); experiment: A172 Kynurenine cell based assay; details: 500 μM L-tryptophan, 48 hours, kynurenine by Erhlich's reagent
[2] = molecular target: IDO (SKOV3 human ovarian adenocarcinoma cells, IFN-γ induced) (Homo sapiens, UniProt P14902); experiment: SKOV3 Kynurenine cell based assay; details: IDO induced by 500 ng/ml IFN-γ, 500 μM L-tryptophan, 48 hours

CS(=O)(=O)N1CCC(C2CNc3cc(F)ccc32)CC1 (centres unmarked)
A172 Kynurenine cell based assay pIC50 [1]: + (+ = pIC50 4.00-4.99)
SKOV3 Kynurenine cell based assay pIC50 [2]: + (+ = pIC50 4.00-4.99)
